Experimental data taken from patent US20230398228A1, “ERIBULIN-BASED ANTIBODY-DRUG CONJUGATES AND METHODS OF USE” (EISAI R&D MANAGEMENT CO., LTD., priority 2016, published 2023).

What was measured:
Assay type in all cases: cell-based, human
HL-60 cells = assay: Bystander killing assay, Nuclight Red HL-60; settings: HL-60:IGROV1 ratio 2:1
NCI-N87 cells = assay: Crystal Violet cytotoxicity assay (Example 4), NCI-N87
Experimental: (§1) Test reagents were serial diluted 1:3 in 2 mL deep-well dilution plates, starting at 200 nM (10 dilutions total). […] Medium was then discarded. […] Plates were read at 570 nm. Data was analyzed using GraphPad Prism 6.
(§2) NCI-H2110 cells are of human non-small cell lung carcinoma origin and express moderate levels of both folate receptor alpha and mesothelin (i.e., MORAb-003- and MORAb-009-reactive).

BT-474 cells = assay: Crystal Violet cytotoxicity assay (Example 4), BT-474
Experimental: as §1, §2

Substance	increase in killing of HL-60 cells in co-culture compared with HL-60 cells alone (HL-60 cells)	IC50 (NCI-N87 cells)	IC50 (BT-474 cells)
MORAb-003-maleimido-PEG2-Val-Cit-pAB-eribulin [MORAb-202]	2 log		
trastuzumab: humanized anti-human her2/neu antibody [reference compound]		0.78 nM	0.641 nM
